Among the data in US6936585B2, “Corticotropin releasing factor 2 receptor agonists” (priority 2002, dated 2005) are Emax and EC50 values, retold here.

One test concerns the target T1, CRF2R (Homo sapiens, UniProt Q13324).
T1 sequence (Q13324 1-411): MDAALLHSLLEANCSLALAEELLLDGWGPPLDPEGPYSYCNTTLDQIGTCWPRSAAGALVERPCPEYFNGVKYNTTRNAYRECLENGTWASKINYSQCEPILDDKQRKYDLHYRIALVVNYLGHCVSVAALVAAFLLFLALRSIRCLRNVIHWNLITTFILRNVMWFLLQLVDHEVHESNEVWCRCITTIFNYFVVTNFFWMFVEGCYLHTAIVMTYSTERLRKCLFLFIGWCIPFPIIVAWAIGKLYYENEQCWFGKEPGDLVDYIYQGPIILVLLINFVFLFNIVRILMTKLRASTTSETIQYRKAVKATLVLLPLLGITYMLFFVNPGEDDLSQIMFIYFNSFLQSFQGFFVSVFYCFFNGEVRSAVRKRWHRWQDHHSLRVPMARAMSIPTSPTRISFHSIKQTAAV
In words: CRF2R agonist activation (EC50 / Emax), called comparative CRF binding. It counts as cell-based. Conditions: for Emax: read-out: CRF2R Emax. The essentials: (§1)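 Agonism is scored from cAMP rise, assayed in lysates or through CRE-driven reporter expression, after peptide contact with cells bearing human CRF2R or CRF1R, compared against vehicle-treated cells.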

A further test deals with T2, CRF1R (Homo sapiens, UniProt P34998).
T2 sequence (P34998 24-415): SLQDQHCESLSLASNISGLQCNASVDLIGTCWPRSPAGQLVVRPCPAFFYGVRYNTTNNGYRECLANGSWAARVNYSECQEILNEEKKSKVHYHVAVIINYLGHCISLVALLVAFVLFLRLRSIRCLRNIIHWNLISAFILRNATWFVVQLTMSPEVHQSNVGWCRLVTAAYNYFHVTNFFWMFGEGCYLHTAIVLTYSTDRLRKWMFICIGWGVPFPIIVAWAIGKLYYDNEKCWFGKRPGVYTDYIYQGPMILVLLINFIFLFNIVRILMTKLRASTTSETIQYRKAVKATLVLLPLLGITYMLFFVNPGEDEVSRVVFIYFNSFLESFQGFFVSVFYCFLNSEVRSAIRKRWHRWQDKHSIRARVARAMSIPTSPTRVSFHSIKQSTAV
In words: CRF1R agonist activation (EC50 / Emax), called comparative CRF binding. To be noted: for Emax: read-out: CRF1R Emax. It counts as cell-based. The essentials: as §1

Each structure is given as a SMILES string.

On to `CC[C@H](C)[C@H](NC(=O)[C@H](CC(N)=O)NC(=O)[C@H](C)NC(=O)[C@H](CC(C)C)NC(=O)[C@H](CC(C)C)NC(=O)[C@H](CC(N)=O)NC(=O)[C@H](C)NC(=O)[C@H](CC(N)=O)NC(=O)[C@H](CC(N)=O)NC(=O)[C@H](C)NC(=O)[C@H](C)NC(=O)[C@H](CCC(N)=O)NC(=O)[C@H](CCC(N)=O)NC(=O)[C@H](CCCCN)NC(=O)[C@H](CCC(=O)O)NC(=O)[C@H](CCCCN)NC(=O)[C@H](CCC(=O)O)NC(=O)[C@H](CCC(N)=O)NC(=O)[C@H](CCCCN)NC(=O)[C@H](CCC(=O)O)NC(=O)[C@@H](NC(=O)[C@H](CCC(=O)O)NC(=O)[C@@H](NC(=O)[C@@H](NC(=O)[C@H](CCCCN)NC(=O)[C@H](CCCNC(=N)N)NC(=O)[C@H](CC(C)C)NC(=O)[C@H](CC(C)C)NC(=O)[C@H](CCC(N)=O)NC(=O)[C@H](Cc1ccccc1)NC(=O)[C@@H]1CCCN1C(=O)[C@H](CC(C)C)NC(=O)[C@H](CC(=O)O)NC(=O)[C@@H](NC(=O)[C@H](CO)NC(=O)[C@@H](NC(=O)[C@@H]1CCCN1C(=O)[C@@H]1CCCN1C(=O)CNC(=O)[C@@H]1CCC(=O)N1)[C@@H](C)CC)[C@@H](C)CC)C(C)C)[C@@H](C)CC)[C@@H](C)CC)C(N)=O` [compound 275], for which the Emax at CRF2R was 100%; on CRF1R, 38.3%.

Take `CC[C@H](C)[C@H](NC(=O)[C@@H](NC(=O)[C@H](C)NC(=O)[C@H](CC(C)C)NC(=O)[C@H](CC(C)C)NC(=O)[C@H](CC(C)C)NC(=O)[C@H](C)NC(=O)[C@H](CC(N)=O)NC(=O)[C@H](CC(N)=O)NC(=O)[C@H](C)NC(=O)[C@H](C)NC(=O)[C@H](CCC(N)=O)NC(=O)[C@H](CCC(N)=O)NC(=O)[C@H](CCCCN)NC(=O)[C@H](CCC(=O)O)NC(=O)[C@H](CCCCN)NC(=O)[C@H](CCC(=O)O)NC(=O)[C@H](CCC(N)=O)NC(=O)[C@H](CCCCN)NC(=O)[C@H](CCC(=O)O)NC(=O)[C@@H](NC(=O)[C@H](CCC(=O)O)NC(=O)[C@@H](NC(=O)[C@H](CCSC)NC(=O)[C@H](CCCCN)NC(=O)[C@H](CCCNC(=N)N)NC(=O)[C@H](CC(C)C)NC(=O)[C@H](CC(C)C)NC(=O)[C@H](CCC(=O)O)NC(=O)[C@H](CC(C)C)NC(=O)[C@@H]1CCCN1C(=O)[C@H](CC(C)C)NC(=O)[C@H](CC(=O)O)NC(=O)[C@@H](NC(=O)[C@H](CO)NC(=O)[C@@H](NC(=O)[C@@H]1CCCN1C(=O)[C@@H]1CCCN1C(=O)CNC(=O)[C@@H]1CCC(=O)N1)[C@@H](C)CC)[C@@H](C)CC)[C@@H](C)CC)[C@@H](C)CC)[C@@H](C)O)C(N)=O` [compound 234]: the Emax at CRF2R amounted to 100%; on CRF1R, 96%.

For the compound `CC[C@H](C)[C@H](NC(=O)[C@H](CCCNC(=N)N)NC(=O)[C@H](C)NC(=O)[C@H](CC(C)C)NC(=O)[C@H](CC(C)C)NC(=O)[C@H](CCCNC(=N)N)NC(=O)[C@H](C)NC(=O)[C@H](CC(N)=O)NC(=O)[C@H](CC(N)=O)NC(=O)[C@H](C)NC(=O)[C@H](C)NC(=O)[C@H](CCC(N)=O)NC(=O)[C@H](CCC(N)=O)NC(=O)[C@H](CCCCN)NC(=O)[C@H](CCC(=O)O)NC(=O)[C@H](CCCCN)NC(=O)[C@H](CCC(=O)O)NC(=O)[C@H](CCC(N)=O)NC(=O)[C@H](CCCCN)NC(=O)[C@H](CCC(=O)O)NC(=O)[C@@H](NC(=O)[C@H](CCC(=O)O)NC(=O)[C@@H](NC(=O)[C@H](CCSC)NC(=O)[C@H](CCCCN)NC(=O)[C@H](CCCNC(=N)N)NC(=O)[C@H](CC(C)C)NC(=O)[C@H](CC(C)C)NC(=O)[C@@H](NC(=O)[C@@H](NC(=O)[C@@H]1CCCN1C(=O)[C@H](CC(C)C)NC(=O)[C@H](CC(=O)O)NC(=O)[C@@H](NC(=O)[C@H](CO)NC(=O)[C@@H](NC(=O)[C@@H]1CCCN1C(=O)[C@@H]1CCCN1C(=O)CNC(=O)[C@@H]1CCC(=O)N1)[C@@H](C)CC)[C@@H](C)CC)[C@@H](C)CC)[C@@H](C)CC)[C@@H](C)CC)[C@@H](C)CC)C(N)=O` [compound 290], the values for the Emax on CRF2R and at CRF1R were 100% and 6.4%, respectively.

On to `CC[C@H](C)[C@H](NC(=O)[C@@H](NC(=O)[C@H](CC(=O)O)NC(=O)[C@H](CC(C)C)NC(=O)[C@H](CC(C)C)NC(=O)[C@H](CC(C)C)NC(=O)[C@H](CCCNC(=N)N)NC(=O)[C@H](CC(N)=O)NC(=O)[C@H](CC(N)=O)NC(=O)[C@H](C)NC(=O)[C@H](C)NC(=O)[C@H](CCC(N)=O)NC(=O)[C@H](CCC(N)=O)NC(=O)[C@H](CCCCN)NC(=O)[C@H](CCC(=O)O)NC(=O)[C@H](CCCCN)NC(=O)[C@H](CCC(=O)O)NC(=O)[C@H](CCC(N)=O)NC(=O)[C@H](CCCCN)NC(=O)[C@H](CCC(=O)O)NC(=O)[C@@H](NC(=O)[C@H](CCC(=O)O)NC(=O)[C@@H](NC(=O)[C@@H](NC(=O)[C@H](CCCCN)NC(=O)[C@H](CCCNC(=N)N)NC(=O)[C@H](CC(C)C)NC(=O)[C@H](CC(C)C)NC(=O)[C@@H](NC(=O)[C@@H](NC(=O)[C@@H]1CCCN1C(=O)[C@H](CC(C)C)NC(=O)[C@H](CC(=O)O)NC(=O)[C@@H](NC(=O)[C@H](CO)NC(=O)[C@@H](NC(=O)[C@@H]1CCCN1C(=O)[C@@H]1CCCN1C(=O)CNC(=O)[C@@H]1CCC(=O)N1)[C@@H](C)CC)[C@@H](C)CC)[C@@H](C)CC)[C@@H](C)CC)C(C)C)[C@@H](C)CC)[C@@H](C)CC)[C@@H](C)O)C(N)=O` [compound 297], for which the Emax at CRF2R amounted to 88.3%; at CRF1R it was 27.2%.

With `CC[C@H](C)[C@H](NC(=O)[C@@H](NC(=O)[C@H](CC(=O)O)NC(=O)[C@H](CC(C)C)NC(=O)[C@H](CC(C)C)NC(=O)[C@H](CC(C)C)NC(=O)[C@H](CCCNC(=N)N)NC(=O)[C@H](CC(N)=O)NC(=O)[C@H](CC(N)=O)NC(=O)[C@H](C)NC(=O)[C@H](C)NC(=O)[C@H](CCC(N)=O)NC(=O)[C@H](CCC(N)=O)NC(=O)[C@H](CCCCN)NC(=O)[C@H](CCC(=O)O)NC(=O)[C@H](CCCCN)NC(=O)[C@H](CCC(=O)O)NC(=O)[C@H](CCC(N)=O)NC(=O)[C@H](CCCCN)NC(=O)[C@H](CCC(=O)O)NC(=O)[C@@H](NC(=O)[C@H](CCC(=O)O)NC(=O)[C@@H](NC(=O)[C@H](CCSC)NC(=O)[C@H](CCCCN)NC(=O)[C@H](CCCNC(=N)N)NC(=O)[C@H](CC(C)C)NC(=O)[C@H](CC(C)C)NC(=O)[C@@H](NC(=O)[C@H](Cc1ccc(O)cc1)NC(=O)[C@@H]1CCCN1C(=O)[C@H](CC(C)C)NC(=O)[C@H](CC(=O)O)NC(=O)[C@@H](NC(=O)[C@H](CO)NC(=O)[C@@H](NC(=O)[C@@H]1CCCN1C(=O)[C@@H]1CCCN1C(=O)CNC(=O)[C@@H]1CCC(=O)N1)[C@@H](C)CC)[C@@H](C)CC)C(C)C)[C@@H](C)CC)[C@@H](C)CC)[C@@H](C)O)C(N)=O` [compound 201], the figures for the EC50 at CRF2R and at CRF1R (CRF1R EC50) were 5 nM and 99.6 nM, respectively. Moreover, the Emax on CRF2R was found to be 100%; at CRF1R, 80%.

On to `CC[C@H](C)[C@H](N)C(=O)N[C@H](C(=O)N[C@@H](CC(C)C)C(=O)N[C@@H](CO)C(=O)N[C@@H](CC(C)C)C(=O)N[C@@H](CC(=O)O)C(=O)N[C@H](C(=O)N1CCC[C@H]1C(=O)N[C@H](C(=O)NCC(=O)N[C@@H](CC(C)C)C(=O)N[C@@H](CC(C)C)C(=O)N[C@@H](CCC(N)=O)C(=O)N[C@H](C(=O)N[C@@H](CC(C)C)C(=O)N[C@@H](CC(C)C)C(=O)N[C@@H](CCC(=O)O)C(=O)N[C@@H](CCC(N)=O)C(=O)N[C@@H](C)C(=O)N[C@@H](CCCNC(=N)N)C(=O)N[C@@H](C)C(=O)N[C@@H](CCCNC(=N)N)C(=O)N[C@@H](C)C(=O)N[C@@H](C)C(=O)N[C@@H](CCCNC(=N)N)C(=O)N[C@@H](CCC(=O)O)C(=O)N[C@@H](CCC(N)=O)C(=O)N[C@@H](C)C(=O)N[C@H](C(=O)N[C@H](C(=O)N[C@@H](CC(N)=O)C(=O)N[C@@H](C)C(=O)N[C@@H](CCCNC(=N)N)C(=O)N[C@H](C(=O)N[C@@H](CC(C)C)C(=O)N[C@@H](C)C(=O)N[C@@H](CCCNC(=N)N)C(=O)N[C@H](C(N)=O)C(C)C)[C@@H](C)CC)[C@@H](C)O)[C@@H](C)O)[C@@H](C)CC)[C@@H](C)CC)C(C)C)C(C)C` [compound 354], for which the Emax at CRF2R turned out to be 100%; at CRF1R, 13.4%.

One may read the Emax as the greatest response seen or fitted, relative to the assay's reference. The term EC50 denotes the concentration that produces a half-maximal response.
